Sequences of proteins named here, by UniProt entry; tags and fusion partners are left off.
UniProt P15428, whole entry: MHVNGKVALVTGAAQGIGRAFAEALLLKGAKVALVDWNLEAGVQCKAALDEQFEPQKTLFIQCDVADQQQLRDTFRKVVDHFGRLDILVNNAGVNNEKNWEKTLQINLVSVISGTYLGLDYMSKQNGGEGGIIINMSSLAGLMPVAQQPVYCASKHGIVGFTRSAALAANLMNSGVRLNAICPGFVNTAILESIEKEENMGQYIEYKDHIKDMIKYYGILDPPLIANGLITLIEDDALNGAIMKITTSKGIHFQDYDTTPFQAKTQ

According to patent US20240294519A1, “PYRROLO[2,3-b]PYRIDINE PGDH INHIBITORS AND METHODS OF MAKING AND USING” (EPIRIUM BIO INC., priority 2021, published 2024):

Tests used:
15-PGDH/HPGD = 15-PGDH/HPGD (Homo sapiens, UniProt P15428); assay: hPGDH inhibitor screening biochemical assay; conditions: read-out: hPGDH: Average IC50; 10 nM enzyme, 15 μM PGE2, 0.25 mM NAD, fluorescence ex/em 340/485 nm
Experimental: A hydroxyprostaglandin dehydrogenase inhibition screening biochemical assay can be performed to assess the synthesized inhibitors provided herein. Provided herein is an exemplary biochemical assay for hPGDH inhibitor screening.
The in vitro biochemical assay can be performed in white, 384 plates in total 20 μl reaction volume consisting of 10 nM of 15-PGDH/HPGD (R&D System #5660-DH), 15 μM Prostaglandin E2 (Sigma, C8 t #P5640-10 MG) and 0.25 mM β-Nicotinamide adenine dinucleotide sodium salt (Sigma, C8 t #N0632-5G) made in reaction buffer (50 mM Tris-HCl, pH 7.5, 0.01% Tween 20) at 10-point dose response curve for test/tool compounds. Briefly, 5 μl (4×) of compounds solution and 5 μl (final concentration, 10 nM) of enzyme solution is added to white 384 well plates and incubated for 10 mins at 37° C. 5 μl (4×) of […] and 5 μl (4×) of β-Nicotinamide adenine dinucleotide sodium salt is added to the wells and incubated for 10 mins at room temperature. Fluorescence is recorded at ex/em=340 nm/485 nm. The percentage (%) inhibition of enzyme activity was determined relative to positive control (1% DMSO) and IC50 was calculated using GraphPad prism software (four parameter-variable slope equation).

15-PGDH = 15-PGDH (Homo sapiens, UniProt P15428); assay: A549 cell based assay: PGE2 in supernatant after IL-1β (HTRF); conditions: A549 cells, fold induction of PGE2, IL-1β plus test article versus IL-1β only
Experimental: Cell Based Assay: 15-PGDH is highly expressed in resting human lung adenocarcinoma cells (A549) (Tong et al., 2006), and this cell line was used to assess 15-PGDH inhibition by MF-300Na in vitro.
In this assay, A549 cells are treated with interleukin (IL) 1β, which induces the expression of cycloxygenase-2 and the synthesis of PGE2 (Tong et al., 2006). In the studies evaluating test articles, thirty thousand A549 cells were seeded in 100 μL F12K completed media and incubated for 24 hours at 37° C. with 5% CO2 before being serum-starved for 24 hours. On the day of the experiment, buffer was changed to complete medium, and cells were incubated for 30 minutes with compounds prior to the addition of IL-1β (final concentration of 0.1-0.25 ng/mL) overnight at 37° C. with 5% CO2. Each concentration was run in triplicate. […] The PGE2 in the supernatant was detected and quantified using a Cisbio HTRF technology (Homogeneous Time-Resolved Fluorescence) kit (62P2APEG-62P2APEH) according to the manufacturer's recommendations, quantifying the fold induction of PGE2 of cells treated with IL-1β plus test article, versus treatment with IL-1β only.

Row | SMILES | IC50 (15-PGDH/HPGD) [nM] | PGE2 - HTRF over IL-β induction at 0.001 μM (15-PGDH) | PGE2 - HTRF over IL-β induction at 0.01 μM (15-PGDH) | PGE2 - HTRF over IL-β induction at 0.1 μM (15-PGDH) | PGE2 - HTRF over IL-β induction at 1 μM (15-PGDH)
1 | CO[C@H]1CCCN(C(=O)c2cnc3c(ccn3-c3ccc(-c4ncn[nH]4)nc3)c2)C1 | < 100 | – | – | – | –
2 | CCOC(=O)N(C)c1cncc(-n2ccc3cc(C(=O)N4CCC(F)(F)CC4)cnc32)c1 | < 100 | 1.54 | 4.35 | 6.28 | 7.01
3 | C[C@H]1CCCN(C(=O)c2cnc3c(ccn3-c3ccc(N4CCN(C)C4=O)nc3)c2)C1 | < 100 | 4.9 | 7.31 | 9.67 | 4.03
4 | Cc1nc(-c2ccc(-n3ccc4cc(C(=O)N5CCC(F)(F)CC5)cnc43)cn2)nn1C | < 100 | – | – | – | –
5 | CC1CN(C(=O)c2cnc3c(ccn3-c3ccc(N4CCOC4=O)nc3)c2)CCC1(F)F (stereo not drawn) | < 100 | 3.31 | 3.35 | 3.7 | 4.03
6 | CC1(C)CCCN(C(=O)c2cnc3c(ccn3-c3ccc(-c4ncn[nH]4)nc3)c2)C1 | < 100 | – | – | – | –
7 | CC(C)(C)OC(=O)Nc1cncc(-n2ccc3cc(C(=O)N4CCC(F)(F)CC4)cnc32)c1 | < 100 | 2.34 | 1.83 | 2.99 | 2.39
8 | Cc1nnc(-c2ccc(-n3ccc4cc(C(=O)N5CCC(F)(F)CC5)cnc43)cn2)n1C | < 100 | – | – | – | –
